# Measured affinities in a library of Ab-14 heavy chain variants

Target: peptide PDVDLGDISGINAS, taken from heptad repeat 2 (HR2) of SARS-CoV-2 spike.

Parent: Ab-14, a human scFv built as VH, a (GGGGS)3 linker, VL. Only the CDRs of the heavy chain vary.
VH: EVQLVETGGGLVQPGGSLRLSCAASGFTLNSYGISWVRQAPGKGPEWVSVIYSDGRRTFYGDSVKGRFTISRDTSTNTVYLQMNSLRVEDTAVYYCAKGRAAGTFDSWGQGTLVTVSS
VL: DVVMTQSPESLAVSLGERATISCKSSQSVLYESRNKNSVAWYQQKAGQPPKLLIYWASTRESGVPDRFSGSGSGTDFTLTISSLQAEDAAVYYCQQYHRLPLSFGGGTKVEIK

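The starting antibody came from a phage panning campaign against this peptide. The variants were designed computationally from a first round of random CDR variants and then made and measured. Their group label is 14H_GP_Gibbs (GP: Gaussian process model; Gibbs: Gibbs sampling; a sequence that several methods proposed may carry one label only). AlphaSeq pools MATa yeast showing the antibodies with MATalpha yeast showing the peptide. The frequency of each diploid, read from paired DNA barcodes, reflects how well the two displayed proteins bind. A regression on co-assayed BCL2-family reference pairs converts the normalised counts of each replicate to an apparent Kd. Each pool was mated in six replicate cultures.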

Positions count from residue 1 of the parent VH; T28E puts E in place of T.
Scale: log10 of Kd in nM, estimated from mating counts; low values are strong binders.
Where no diploid with the target was found in that replicate, the entry reads "nd": below detection, most likely a poor binder, though not proof of it.

The variant T28E+G61T+R100S showed 0.34, 0.02, 0.90, 0.16, 0.39, 0.53 (controls 0 of 18).
The variant T28G+G61A+R100H+A101E showed 0.20, 0.18, 0.14, 0.04, 0.11, 0.48 (controls 2 of 18).
The variant T28E+S31E+R100Q+S107E showed 1.01, 0.98, 0.98, 1.05, 1.19, 1.04 (controls 0 of 18).
The variant G61S+S63D+R100Q+S107T showed 0.30, 0.17, 0.23, 0.05, -0.02, 0.07 (controls 1 of 18).
The variant R56W+G61V+R100H+A101V showed nd, nd, nd, nd, nd, 1.86 (controls 0 of 18).
The variant T28D+G61M+S63M+A101T showed nd, nd, nd, nd, nd, nd (controls 0 of 18).
The variant T28S+G61A+S63A+R100S+S107K showed nd, -0.15, 1.37, 0.31, -0.02, 0.01 (controls 0 of 18).
The variant T28N+G61I+S63D+R100Q+S107K showed 1.62, 1.89, 2.71, 3.17, 1.69, 3.19 (controls 0 of 18).
The variant T28S+S31E+G61M+S63A+A101T showed 0.03, -0.08, 0.85, 1.12, 0.19, 0.84 (controls 0 of 18).
The variant T28P+S31D+R100Q+A101T showed -0.05, 0.36, 0.01, 0.19, 0.01, 0.20 (controls 0 of 18).
The variant T28N+G61A+R100N+S107A showed 2.71, 1.39, 0.90, 0.87, 0.80, 2.91 (controls 2 of 18).
The variant T28E+G61V+R100H+S107L showed 0.99, 0.60, nd, 0.07, 1.38, 0.77 (controls 0 of 18).
The variant T28D+G61Q+S63R+A101E showed 0.19, 0.03, 0.16, -0.08, 0.04, 0.20 (controls 1 of 18).
The variant G26Y+T28D+G61A+A101N showed 0.68, 0.24, 0.15, 0.01, 0.55, 0.25 (controls 0 of 18).
The variant G26K+R56K+G61S+A101T showed 0.61, 0.50, 0.05, 0.03, 0.34, 1.11 (controls 1 of 18).
The variant T28D+G61A+S63E+R100Q+S107N showed nd, nd, nd, nd, nd, nd (controls 0 of 18).
The variant T28A+S31E+A101V+S107T showed 0.27, 0.01, -0.16, 0.22, 0.45, -0.12 (controls 0 of 18).
The variant T28H+S31T+G61I+R100E showed 1.35, 1.60, nd, 2.09, 1.20, 2.76 (controls 0 of 18).
The variant T28G+G61S+S63A+R100K showed 1.31, 0.71, 0.37, 0.75, 0.35, 0.92 (controls 0 of 18).
The variant T28D+S63P+R100Q+A101T+S107A showed 0.83, 0.58, 0.50, 0.71, 0.58, 0.43 (controls 0 of 18).
The variant G26K+R56Q+G61S+R100Q+A101T showed 1.13, 1.14, 1.18, 0.32, 1.15, 0.42 (controls 0 of 18).
The variant G26S+T28E+S31M+R100Q+A101T showed 1.07, nd, nd, nd, 1.81, 1.32 (controls 1 of 18).
The variant G26M+T28D+S31T+R100E+S107V showed 2.01, 1.75, 1.29, 2.72, 3.03, 1.10 (controls 1 of 18).
The variant T28D+F59A+S63R+A101E showed -0.65, -0.75, -0.48, -0.16, -1.16, -0.53 (controls 0 of 18).
The variant T28H+G61Q+A101N+S107T showed nd, 2.54, 1.40, 2.85, 2.29, 1.43 (controls 1 of 18).
The variant T28G+S63Q+R100K+A101T showed 2.09, 1.32, 1.16, 1.48, 1.37, 1.67 (controls 0 of 18).
The variant T28D+F59A+S63T+A101N showed 0.00, -0.32, -0.32, -0.20, -0.37, -0.16 (controls 0 of 18).
The variant G26A+T28D+G61I+R100N showed 0.74, 0.89, 1.37, 0.92, 0.83, 1.16 (controls 0 of 18).
The variant T28E+G61A+R100K+A101T+S107W showed nd, 1.02, 1.31, nd, 0.81, nd (controls 0 of 18).
The variant T28S+S31E+R56Q+G61V+A101T showed 0.49, 0.49, 0.06, -0.12, 0.29, 0.29 (controls 0 of 18).
The variant T28S+G61H+S63R+R100E+S107T showed nd, nd, nd, nd, nd, nd (controls 0 of 18).
The variant T28D+G61V+S63R+R100Q+S107F showed nd, nd, nd, nd, 0.82, nd (controls 0 of 18).
The variant R56L+G61D+A101V showed 1.11, 0.87, 0.61, 0.77, 1.09, 1.90 (controls 0 of 18).
The variant T28P+S31E+R56K+A101T showed 0.17, 0.12, -0.11, -0.08, 0.01, 0.53 (controls 0 of 18).
The variant T28D+T58W+R100Q+A101T showed nd, 2.88, nd, 1.43, 1.18, 2.15 (controls 0 of 18).
The variant G26S+T28D+R100K+A101I showed 0.65, 1.01, 0.51, -0.61, 2.03, 0.81 (controls 0 of 18).
The variant T28E+R56K+R100Q+S107D showed 0.78, nd, 1.88, 1.89, 2.38, 1.65 (controls 0 of 18).
The variant T28Q+R100Q+S107L showed nd, nd, 1.05, nd, 0.47, nd (controls 0 of 18).
The variant T28S+S31E+R100K+A101V+S107T showed -0.22, -0.32, 0.05, -0.04, -0.51, -0.22 (controls 0 of 18).
The variant G26K+T28K+G61I+A101N showed nd, nd, nd, nd, nd, nd (controls 0 of 18).
The variant R56K+G61A+S63D+A101V+S107V showed 0.01, -0.04, -0.11, -0.13, 0.17, 0.40 (controls 0 of 18).
The variant T28E+S31E+G61A+S63M+R100K showed 1.21, 0.76, 0.92, 0.99, 0.54, 1.07 (controls 1 of 18).
The variant S63N+R100Q+A101T+S107L showed nd, nd, nd, nd, nd, nd (controls 0 of 18).
The variant S31E+A101E+S107A showed -0.03, -0.03, 0.86, -0.35, 0.56, 0.13 (controls 0 of 18).
The variant T28E+S63M+R100Q+A101T showed nd, nd, nd, nd, nd, nd (controls 0 of 18).
The variant T28S+G61A+S63A+A101T+S107K showed 1.08, 1.05, 0.56, 0.54, 0.57, 0.73 (controls 0 of 18).
The variant T28W+G61A+R100K+A101T+S107T showed 0.48, 1.08, 1.55, 0.27, 0.83, 1.95 (controls 0 of 18).
The variant T28S+S31E+F59M+A101N showed 0.11, -0.21, -0.01, -0.32, -0.38, -0.11 (controls 0 of 18).
The variant T28E+R100Q+A101L showed 0.93, 0.82, nd, nd, 0.85, nd (controls 0 of 18).
The variant T28G+G61I+S63Q+R100K+A101T showed nd, nd, nd, nd, nd, 1.34 (controls 0 of 18).

The first 4 variants above that were never detected:

changes,"log10 Kd, replicates",empty controls
T28D+G61M+S63M+A101T,"nd, nd, nd, nd, nd, nd",0/18
T28D+G61A+S63E+R100Q+S107N,"nd, nd, nd, nd, nd, nd",0/18
T28S+G61H+S63R+R100E+S107T,"nd, nd, nd, nd, nd, nd",0/18
G26K+T28K+G61I+A101N,"nd, nd, nd, nd, nd, nd",0/18

A sequence measured in both rounds can read differently, since the two assays cover different ranges.
In the paper, a design with two or fewer of six values counts as a poor binder.
Of ten entries with the parent sequence, four were seen in most replicates (averages 0.34 to 2.37), three in one and three in none, so single entries are noisy.
Nonspecific signal, from three strains lacking the peptide, appeared in 1% of pairings of all heavy chain designs, centred on 2.08 (5% of these signals below 0.84); values are not corrected for it. For each scFv, signals with the empty controls are counted beside the result.

Source: Li et al. 2023 (doi:10.1038/s41467-023-39022-2), MIT Lincoln Laboratory and A-Alpha Bio; data file from the FLAb repository.